Each structure is given as a SMILES string.

By UniProt entry, the sequences of proteins in these tests, tags left out. Where a name states a change or a piece, a line headed by the entry shows the natural chain unless it says otherwise.
UniProt P33302: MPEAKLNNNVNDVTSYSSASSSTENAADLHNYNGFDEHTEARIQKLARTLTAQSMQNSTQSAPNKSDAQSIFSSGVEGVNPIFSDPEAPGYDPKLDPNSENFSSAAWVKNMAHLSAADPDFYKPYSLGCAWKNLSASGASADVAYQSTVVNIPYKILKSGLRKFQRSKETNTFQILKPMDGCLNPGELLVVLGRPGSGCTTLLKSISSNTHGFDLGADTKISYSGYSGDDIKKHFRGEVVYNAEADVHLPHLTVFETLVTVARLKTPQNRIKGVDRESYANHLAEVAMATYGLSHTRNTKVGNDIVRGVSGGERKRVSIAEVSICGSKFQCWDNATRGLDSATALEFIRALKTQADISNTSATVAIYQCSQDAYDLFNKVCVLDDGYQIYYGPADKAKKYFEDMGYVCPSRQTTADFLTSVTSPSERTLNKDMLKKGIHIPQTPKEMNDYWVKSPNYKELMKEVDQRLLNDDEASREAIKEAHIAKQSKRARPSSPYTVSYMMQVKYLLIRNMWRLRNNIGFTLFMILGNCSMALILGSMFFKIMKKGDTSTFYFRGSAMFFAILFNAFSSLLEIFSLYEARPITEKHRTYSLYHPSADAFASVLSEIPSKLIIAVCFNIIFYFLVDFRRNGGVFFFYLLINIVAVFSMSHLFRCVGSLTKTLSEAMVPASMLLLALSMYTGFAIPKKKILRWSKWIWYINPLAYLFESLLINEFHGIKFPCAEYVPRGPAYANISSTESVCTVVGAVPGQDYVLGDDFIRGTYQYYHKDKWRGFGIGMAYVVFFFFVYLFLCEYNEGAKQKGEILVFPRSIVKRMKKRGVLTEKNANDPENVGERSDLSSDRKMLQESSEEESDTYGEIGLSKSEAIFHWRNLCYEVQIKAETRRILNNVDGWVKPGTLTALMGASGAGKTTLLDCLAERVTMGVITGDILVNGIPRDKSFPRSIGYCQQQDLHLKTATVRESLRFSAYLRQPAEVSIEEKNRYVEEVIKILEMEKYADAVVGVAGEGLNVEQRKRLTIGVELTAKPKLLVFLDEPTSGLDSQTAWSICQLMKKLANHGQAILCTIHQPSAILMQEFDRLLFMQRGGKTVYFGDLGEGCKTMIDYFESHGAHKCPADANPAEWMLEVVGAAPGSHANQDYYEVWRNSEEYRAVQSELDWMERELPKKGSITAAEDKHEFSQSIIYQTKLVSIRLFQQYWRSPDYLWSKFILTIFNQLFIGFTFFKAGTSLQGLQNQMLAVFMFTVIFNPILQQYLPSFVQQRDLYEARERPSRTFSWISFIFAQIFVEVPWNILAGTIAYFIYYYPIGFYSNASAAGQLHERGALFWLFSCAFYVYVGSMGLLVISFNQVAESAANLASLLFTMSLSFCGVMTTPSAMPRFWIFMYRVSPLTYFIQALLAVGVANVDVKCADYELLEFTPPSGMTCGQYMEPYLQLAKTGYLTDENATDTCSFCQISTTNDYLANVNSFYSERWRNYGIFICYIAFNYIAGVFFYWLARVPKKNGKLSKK

From ChEMBL document CHEMBL1687730, “New high-throughput screening assay to reveal similarities and differences in inhibitory sensitivities of multidrug ATP-binding cassette transporters” (Antimicrob Agents Chemother, 2009) come the findings set out here.

The test concerns the target Pleiotropic ABC efflux transporter of multiple drugs (Saccharomyces cerevisiae S288c, UniProt P33302). Description: Inhibition of Pdr5p-mediated rhodamine 6G transport in Saccharomyces cerevisiae MKPDR5h plasma membrane by spectrofluorometric assay.

In general, IC50 refers to the concentration that gives 50% inhibition. A lower IC50 goes with inhibition by little substance. For the molecule `CSc1ccc2c(c1)N(CCC1CCCCN1C)c1ccccc1S2` (stereo unspecified) [THIORIDAZINE], it took 1300 nM to reach half-maximal inhibition (IC50).
